TrxR1 inh: rat TrxR1 inhibition; O89049; recombinant rTrxR1, NADPH fluorescence consumption, selenite substrate; Potency, µM (highest dose often 114 µM), inactives show at the highest dose activity change, negative = inhibition, hits mostly inhibitors; hit rate 1% among 390,000; also: potency is read from the fitted curve at half-maximal effect; % is scaled to controls: 0 for no effect and ±100 for the full control effect; nearly all actives have a fitted effect of over 65% in size
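Rat TrxR1 (90 nM in the dispensed reagent) was pre-reduced with 400 uM NADPH for 5 min at room temperature, then incubated with compound for 15 min. After 400 uM selenite was added, NADPH fluorescence (Ex 340/Em 450 nm) was followed for 8 min.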
Anesthetic bind: candidate novel general anesthetic via apoferritin binding. Potency, µM (titrated, usually from 77.5 µM), inactives show at the top dose activity change, negative = displacement, actives largely listed as inhibitors. hit rate 0.074% among 350,000. P02791. apoferritin/1-aminoanthracene competitive binding, fluorescence; also: potency is read from the fitted curve at half-maximal effect; % is scaled to controls: 0 for no effect and ±100 for the full control effect; nearly all actives have a fitted effect of over 20% in size
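Read-out: endpoint 1-AMA fluorescence, excitation 380 nm and emission 535 nm, after compounds sit 10 min at room temperature with 10 uM horse-spleen apoferritin in 50% saturated 1-AMA/PBS. Values come from four-parameter Hill fits.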
TrxR1 substrate: substrates of rat thioredoxin reductase 1; O89049; hit rate 0.01% among 390,000; purified TrxR1 substrate turnover, NADPH consumption readout; Potency, µM (series often up to 114 µM), for the others: at the highest dose activity change, negative = substrate turnover; AID 588456; also: potency is read from the fitted curve at half-maximal effect; % is scaled to controls: 0 for no effect and ±100 for the full control effect; nearly all actives have a fitted effect of over 50% in size
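Rat TrxR1, dispensed at 90 nM, was prereduced with 400 uM NADPH (final) for 5 min at ~22 deg C, then incubated with compound 15 min before 400 uM selenite. A first-read NADPH fluorescence drop versus no-compound background flagged substrates.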
ClpP mod: qHTS Assay for Activators of ClpP; purified B. subtilis ClpP, FRET peptide cleavage, 20 min; Potency, µM (top dose mostly 57.5 µM), for the others: at the top dose activity change, negative = active; hit rate 1.9% among 340,000; ATP-dependent Clp protease proteolytic subunit (Bacillus subtilis (strain 168)), P80244; active = well fitted falling curve with a large enough effect; inconclusive = small, poorly fitted or top-dose-only effect; inactive = no such curve, though single readings can be large or run the other way; also: potency is read from the fitted curve at half-maximal effect; the source files actives as falling curves though it sought activators and does not explain the sign; nearly all actives have a fitted effect of over 65% in size
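ClpP 10 microg/mL final, pH 8 Tris/KCl buffer with BSA, glycerol, Tween-20; compound pinned in; FRET-FV substrate; RT 20 min; Ex320/Em430; ΔFRET vs ADEP 5.8 microM, DMSO, no enzyme.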
miR-21 reporter: raises the signal of a miR-21 reporter. Potency, µM (highest dose often 38.3 µM), without a hit: top-dose reporter change, positive = more light. 340,000 tested, under 10 active. HeLa miR-21 FLuc reporter, luciferase, 48 h; active = well fitted rising curve with a large enough effect; inconclusive = small, poorly fitted or top-dose-only effect; inactive = no such curve, though single readings can be large or run the other way;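 further: % of control where 0% means no effect; miR-21 action dims this reporter so a rising signal means less miR-21 action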
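HeLa miR-21-FLuc reporter line, endogenous miR-21; 2000 cells/well in DMEM/10% FBS; compound titration up to ~40uM final, 48 h, 37 degree Celsius; luciferase detection reagent, 15 min lysis, CCD luminescence.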
* marks the source's active call; other numbers are inactive results; i = inactive; ? = inconclusive; · = not tested or not shown; [ ] = remark or other dose. In the library only some 2.5% were active in any assay of this set; here they are far more common. Unless noted, calls follow the shape of the dose curve; as a rule, active = well fitted curve in the direction sought with a large enough effect; inconclusive = small, poorly fitted or top-dose-only effect, or another doubt; inactive = no such curve, though single readings can be large; an effect the other way counts as inactive or inconclusive.

The chains behind the UniProt entries cited, without tags or fusion partners.
ATP-dependent Clp protease proteolytic subunit (Bacillus subtilis (strain 168)), P80244, UniProt P80244, whole entry, looked up: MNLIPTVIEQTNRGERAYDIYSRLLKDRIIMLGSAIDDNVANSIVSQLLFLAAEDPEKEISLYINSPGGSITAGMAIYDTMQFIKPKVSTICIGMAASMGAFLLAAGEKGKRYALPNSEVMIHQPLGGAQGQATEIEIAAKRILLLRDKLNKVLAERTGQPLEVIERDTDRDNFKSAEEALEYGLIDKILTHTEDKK

No. | structure | TrxR1 inh | Anesthetic bind | TrxR1 substrate
1 | CCC1(C)CC(=O)N(c2ccc(C(=O)O)c(O)c2)C1=O (stereo not drawn) | 13.0%[57.1 µM] | -8.2% | 38.8%[57.1 µM]
2 | Cc1cccc(C)c1OCC(=O)NCC1(N2CCOCC2)CCCCC1 | 1.8% | 6.7% | -4.2%
3 | CC(C)N1C(=O)C(O)(c2c[nH]c3ccccc23)c2ccccc21 (stereo not drawn) | -11.0% | ? | -14.2%
4 | Cc1cc(=O)oc2c3c(ccc12)OCN(Cc1ccc(Cl)cc1)C3 | 20µM* | 544.9% | 916.4%
5 | CCCc1cc(=O)oc2c3c(ccc12)OCN(Cc1ccccc1OC)C3 | 22.4µM* | i | i
6 | Nc1ccc(S(=O)(=O)NC2(C(F)(F)F)NC(=O)N(c3cccc(Cl)c3)C2=O)cc1 (stereo not drawn) | -0.7% | -12.2% | 0.6%
7 | Cc1ncc(CO)c2c1Oc1nc(-c3ccc(F)cc3)nc(SCC(=O)N3CCCCC3)c1C2 | -1.3% | 1.0% | 3.8%
8 | O=C(CI)Nc1cccc2cccnc12 | -8.7% | · | 4.6%[0.457 µM]

No. | ClpP mod | miR-21 reporter
1 | 25.1µM* | -3.3%
2 | -1.3% | 15.0%
3 | -1.6% | 22.6%
4 | 16.3% | -9.2%
5 | 3.9% | 10.1%
6 | 0.5% | -15.1%
7 | 1.2% | -0.8%
8 | · | ·

More entries follow:
No. | structure | TrxR1 inh | Anesthetic bind | TrxR1 substrate
9 | COCCCn1c(C)cc(C(=O)COC(=O)C23CC4CC(CC(O)(C4)C2)C3)c1C | -4.0% | · | -7.6%
10 | Cn1cccc1C(=O)NC(=O)COC(=O)C12CC3CC(CC(O)(C3)C1)C2 | -3.1%[57.1 µM] | ? | 5.3%[57.1 µM]
11 | COc1cc2cc(CN(CCc3cccc(C)c3)C(=S)NCCCN(C)C)c(=O)[nH]c2cc1OC | ? | -9.6% | 9.3%
12 | COc1cc2cc(CN(CCO)C(=O)c3cccs3)c(=O)[nH]c2cc1OC | 1.6% | -4.1% | 26.0%
13 | Cc1ccc(O)c(NC(=O)c2ccccc2-c2ccccc2C(=O)O)c1 | 16.0%[57.1 µM] | -6.1% | 3.1%[57.1 µM]
14 | Fc1ccc(/C=C/c2ccc3ccccc3n2)cc1 | ? | · | -15.0%
15 | O=C(CCCl)Nc1cccc2cccnc12 | 12.6µM* | · | 8.8%
16 | O=C(CCl)Nc1cccc2ncccc12 | 50.1µM* | 4.6% | -4.4%

No. | ClpP mod | miR-21 reporter
9 | 28.2µM* | ·
10 | 13.2% | -37.2%
11 | 28.2µM* | -14.5%
12 | 31.6µM* | -2.5%
13 | 25.1µM* | -0.4%
14 | -20.4% | ·
15 | · | ·
16 | -3.9% | ?

Additional entries
No. | structure | TrxR1 inh | Anesthetic bind | TrxR1 substrate
17 | O=C(CCBr)Nc1cccc2cccnc12 | ? | · | 8.4%
18 | COc1ccc(OCC(=O)Nc2cccc3ncccc23)cc1 | 3.3%[57.1 µM] | -7.5% | -8.2%
19 | COc1ccc(NC(=O)c2cc3c(=O)n(Cc4cccs4)ccc3nc2C)c(OC)c1 | 25.8%[57.1 µM] | -11.7% | 5.6%[57.1 µM]
20 | Cc1ccc(NC(N)=S)cc1C | -14.5% | -8.3% | -4.9%
21 | O=C(Nc1ccccc1)N(Cc1ccccc1)CC(O)C(F)(F)F (stereo not drawn) | 2.5%[57.1 µM] | -7.6% | 8.6%[57.1 µM]
22 | Cc1cc(S(=O)(=O)NCc2ccco2)c(C)cc1Cl | 70.8µM* | -22.6% | -2.3%
23 | COc1ccc2c(c1)c(N1CCCC1=O)c(C(=O)Nc1cc(C)c(Cl)cc1OC)n2C | 10.0% | -3.6% | -5.8%
24 | COc1cccc2c1cc1c(=O)n(CC(=O)N3CCN(c4cccc(C(F)(F)F)c4)CC3)nc(C)n12 | 20.0% | 0.3% | 18.8%

No. | ClpP mod | miR-21 reporter
17 | · | ·
18 | 0.7% | 2.1%
19 | -2.5% | -1.6%
20 | 28.2µM* | 0.2%
21 | 28.2µM* | -2.4%
22 | 0.8% | -8.0%
23 | -13.0% | -1.4%
24 | 15.8µM* | -3.9%

Taken from above:
`COc1cccc2c1cc1c(=O)n(CC(=O)N3CCN(c4cccc(C(F)(F)F)c4)CC3)nc(C)n12` in ClpP mod is listed with 15.8µM*
`Cc1ccc(NC(N)=S)cc1C` in TrxR1 inh is listed with -14.5%
`O=C(Nc1ccccc1)N(Cc1ccccc1)CC(O)C(F)(F)F` (stereo not drawn) in TrxR1 substrate is listed with 8.6%[57.1 µM]

Additional records.
No. | structure | TrxR1 inh | Anesthetic bind | TrxR1 substrate
25 | CCOC(=O)C1CCCN(C(=O)Cn2nc(C)n3c(cc4c(OC)cccc43)c2=O)C1 (stereo not drawn) | 14.8% | -2.1% | 253.3%
26 | CCOC(=O)C1CCN(C(=O)Cn2nc(C)n3c(cc4c(OC)cccc43)c2=O)CC1 | -13.5% | 1.9% | 36.8%
27 | COc1ccc(-c2cc(C(F)(F)F)nc(NCc3ccco3)n2)cc1OC | 4.2% | -9.1% | 68.9%
28 | FC(F)(F)c1cc(-c2ccc3c(c2)OCO3)nc(NCc2ccco2)n1 | -27.5% | -10.8% | 9.2%
29 | C=CCN1c2ccccc2C(=O)CS1(=O)=O | 11.2µM* | · | 13.0%[57.1 µM]
30 | COc1ccc(CN2c3c(Br)cccc3C(=O)CS2(=O)=O)cc1 | -25.6% | · | -5.1%
31 | N#C/C(=C\c1cc(Cl)cc(Cl)c1O)C(=O)NC1CCCCC1 | 79.4µM* | -7.0% | -15.1%
32 | N#C/C(=C\c1cc(Cl)ccc1O)C(=O)NC1CCCCC1 | 23.1% | -12.0% | 8.1%

No. | ClpP mod | miR-21 reporter
25 | 3.6% | -0.7%
26 | 2.82µM* | -0.6%
27 | ? | -8.1%
28 | 25.1µM* | -8.6%
29 | -2.9% | ·
30 | -0.3% | ·
31 | ? | -3.0%
32 | -1.9% | -1.4%

Later entries
No. | structure | TrxR1 inh | Anesthetic bind | TrxR1 substrate
33 | N#C/C(=C\c1cc(Br)ccc1F)C(=O)NC1CC1 | 20µM* | -3.1% | -1.5%
34 | CCc1nc(N2CCN(C(=O)CCl)CC2)c2c3c(sc2n1)CC(C)CC3 (stereo not drawn) | 22.4µM* | -21.1% | 5.2%
35 | CC(C)NC(=O)N1CCN(S(=O)(=O)c2ccc3c(ccn3C)c2)CC1 | 13.0%[57.1 µM] | -9.4% | 3.1%[57.1 µM]
36 | COC(=O)CSc1nnc(C)c(=O)[nH]1 | 11.0% | -2.8% | 2.8%
37 | CCOC(=O)CNc1nnc(SCC(=O)OCC)[nH]c1=O | 10µM* | -6.9% | 5.7%
38 | O=C(O)c1cccc(NC2=C(Cl)C(=O)c3ccccc3C2=O)c1 | ? | -13.8% | -15.8%
39 | Cc1ccc(NCC(=O)c2ccccc2)cc1Cl | 6.8% | 4.5% | -3.6%
40 | O=C1C(Cl)=C(Nc2ccccc2)C(=O)c2ccccc21 | 0.631µM* | -10.1% | -10.0%

No. | ClpP mod | miR-21 reporter
33 | 1.1% | 0.4%
34 | · | ?
35 | 0.5% | 0.7%
36 | 0.0% | -0.1%
37 | 0.7% | -3.7%
38 | -0.2% | ?
39 | 0.8% | -5.4%
40 | -0.8% | -14.3%

More records follow.
No. | structure | TrxR1 inh | Anesthetic bind | TrxR1 substrate
41 | Cc1ccc(NC2=C(NC(=O)c3ccccc3)C(=O)c3ccccc3C2=O)cc1Cl | 1.58µM* | ? | ?
42 | O=C(O)c1ccc(NC2=C(Cl)C(=O)c3ccccc3C2=O)cc1 | 0.501µM* | 8.1% | -4.8%
43 | Cc1nc2ccn(Cc3cccnc3)c(=O)c2cc1C(=O)N1CCN(c2ccc(F)cc2)CC1 | 18.0%[57.1 µM] | 2.8% | 1.8%[57.1 µM]
44 | CCOC(=O)c1c(C)n(-c2ccccc2)c2ccc(OC(=O)c3cc(OC)cc(OC)c3)cc12 | 19.7% | 0.8% | 4.2%
45 | CCn1c(SCc2ccccc2C)nc(=O)c2c(C(=O)OC)cc(C3CC3)nc21 | 19.1%[57.1 µM] | 19.6% | -1.5%[57.1 µM]
46 | C=C(c1ccc2ccccc2n1)c1cccs1 | -11.6% | · | -7.0%
47 | CCOc1ccc(N2CC(C(=O)Nc3ncccc3C)CC2=O)cc1 (stereo not drawn) | -5.6% | -7.8% | -4.0%
48 | Cc1cc(Br)ccc1NC(=O)COC(=O)c1ccccc1OCC(N)=O | 10.8% | · | 5.5%

No. | ClpP mod | miR-21 reporter
41 | -0.8% | 12.0%
42 | 1.9% | -22.6%
43 | -9.3% | -5.1%
44 | -0.7% | -10.4%
45 | -6.8% | -2.6%
46 | -0.1% | ·
47 | 17.8µM* | -0.1%
48 | -1.9% | ·

Later entries:
No. | structure | TrxR1 inh | Anesthetic bind | TrxR1 substrate
49 | O=C1NC(c2cccc(OCc3ccccc3)c2)Nc2ccccc21 (stereo not drawn) | 6.7%[11.4 µM] | · | 8.1%[11.4 µM]
50 | CCS(=O)(=O)Nc1c(C(=O)O)[nH]c2ccccc12 | 4.4% | -14.6% | 80.4%
51 | O=C(CSc1nnc(-c2ccco2)c(-c2ccco2)n1)c1ccccc1 | 12.6µM* | -6.3% | -10.8%
52 | CC(=O)c1ccc(NC(=O)CSc2nnc(-c3ccco3)c(-c3ccco3)n2)cc1 | 7.08µM* | -10.5% | -3.1%[57.1 µM]

No. | ClpP mod | miR-21 reporter
49 | 31.6µM* | ·
50 | 22.4µM* | -15.5%
51 | · | -4.3%
52 | · | 0.4%

Two entries from above, with the structure last:
entry	TrxR1 inh	Anesthetic bind	TrxR1 substrate	ClpP mod	miR-21 reporter	Compound
51	12.6µM*	-6.3%	-10.8%	·	-4.3%	O=C(CSc1nnc(-c2ccco2)c(-c2ccco2)n1)c1ccccc1
52	7.08µM*	-10.5%	-3.1%[57.1 µM]	·	0.4%	CC(=O)c1ccc(NC(=O)CSc2nnc(-c3ccco3)c(-c3ccco3)n2)cc1
